What was measured:
[1] = tested on: pS16-Hsp20 in SH-SY5Y cells; assay: Cell based Hsp20-PDE4D disruptor assay, nucleofected SH-SY5Y cells, pS16-Hsp20 Western blot; design: species or system human; details: SH-SY5Y cells nucleofected with 500 μM peptide, 2 hours
Protocol: FIG. 9. Disrupter induced HSP20 phosphorylation SH-SY5Y cells nucleofected with 500 μM of each peptide and incubated for 2 hours prior to harvesting. Each assay was blotted for Hsp20, pS16-Hsp20 and tubulin. Changes in levels of phospho-Hsp20 relative to DMSO only controls were quantified through densitometry analysis and each assay was normalised to α-tubulin loading control. The results are the average of three separate experiments and error bars represent SEM. *=p<0.05, **=p<0.01 compared to DMSO only controls (Student-T-test)
SDS-PAGE analysis was done on NuPage® pre-cast gels X-cell apparatus (Invitrogen, Paisley) using MES-SDS running buffer, Samples were reduced in Laemmli 2× loading buffer (4% SOS) with 5% β-mercaptoethanol. For Western Blotting (WB) analysis, samples were transferred using NuPage® X-cell blotting module onto a nitrocellulose membrane. Membranes were blocked using 5% Milk in 1×TBST (w/v). Antibodies were incubated in 1% milk in 1×TBST (w/v) for either 1 hour at room temperature or overnight at 4° C. Signals were detected using enhanced chemiluminescence system (Pierce) and developed on an X-omat film developer. Subsequent densitometry analysis was carried out using Quantity One (Bio-Rad). […]

His-Hsp20 = biological target: T1, His-Hsp20 (Homo sapiens, UniProt O14558); assay: SPOT peptide array overlaid with His-Hsp20; assay type: binding; details: overlay with 10 μg/ml purified His-Hsp20
T1 construct: made in house; host or cells: E. coli BL21
T1 sequence (O14558 1-160): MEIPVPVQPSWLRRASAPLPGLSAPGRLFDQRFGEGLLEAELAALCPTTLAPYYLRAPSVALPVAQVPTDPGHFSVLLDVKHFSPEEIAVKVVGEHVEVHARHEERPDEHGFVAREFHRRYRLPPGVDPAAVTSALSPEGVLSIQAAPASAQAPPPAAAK
Protocol: A variety of peptides were generated and SPOT-synthesised onto slides which were then overlaid with 10 μg/ml of purified His-Hsp20. Interaction with peptides and Hsp20 was evaluated by probing slides with anti-His or Hsp20 antibodies and analysed using enhanced chemi-luminescence techniques, Negative controls used anti-His antibody only with no overlay of His-Hsp20 protein (data not shown). Positive interaction domains were then subjected to further rounds of truncations and key endogenous residues were substituted for non-native residues to ascertain what effects this would have in the binding of Hsp20.
This was done as described in detail elsewhere^41.
PDE4 isoform localisation invariably depends on protein-protein interactions, with PDE4s shown to associate with a diverse group of interacting partners such as RACK1^32, 36, βarrestin^36, β1-Ar^37, DISC1^38, the p75 neurotrophin receptor^39 and the cardiac IKs potassium channel^40. One method that has been pivotal in mapping the sites of association between PDE4s and their binding partners is peptide array^36. SPOT immobilised peptide libraries of PDE4 sequences have been utilised to accurately predict binding domains for partner proteins. Here we have employed this novel technique to define the HSP20 binding site within the sequence of PDE4D5, an isoform that is endogenously expressed in cardiomyocytes. […]

With Ac-TK-NH2 [Peptide 8] the “pS16-Hsp20 levels relative to DMSO only controls” value [1] was “significant increase in pS16-Hsp20 levels” and the “binding of Hsp20 to peptide on array” value (His-Hsp20) was “still retaining the ability to bind Hsp20”.
